The target of the assay is p97 ATPase WT (Homo sapiens (Human), UniProt P55072). Nature of the assay: p97 ADP-Glo assay. Format: biochemical. To be noted: Table 3; read-out: ADPGlo IC50. An excerpt:
ADP-Glo™ (Promega Corp.) is a bioluminescent, homogeneous assay that measures ADP formed from a biochemical reactions. Because of its high sensitivity, the assay is suitable for monitoring enzyme activities at very early substrate conversions requiring very low amount of enzymes.
The ADP-Glo assay can be conducted as described in Chou, T.-F.; Bulfer, S. L.; Weihl, C.
Background: ADP-Glo turns the ADP formed in a reaction into a luminescent signal.

Sequences of proteins named here, by UniProt entry; tags and fusion partners are left off.
UniProt P55072, whole entry: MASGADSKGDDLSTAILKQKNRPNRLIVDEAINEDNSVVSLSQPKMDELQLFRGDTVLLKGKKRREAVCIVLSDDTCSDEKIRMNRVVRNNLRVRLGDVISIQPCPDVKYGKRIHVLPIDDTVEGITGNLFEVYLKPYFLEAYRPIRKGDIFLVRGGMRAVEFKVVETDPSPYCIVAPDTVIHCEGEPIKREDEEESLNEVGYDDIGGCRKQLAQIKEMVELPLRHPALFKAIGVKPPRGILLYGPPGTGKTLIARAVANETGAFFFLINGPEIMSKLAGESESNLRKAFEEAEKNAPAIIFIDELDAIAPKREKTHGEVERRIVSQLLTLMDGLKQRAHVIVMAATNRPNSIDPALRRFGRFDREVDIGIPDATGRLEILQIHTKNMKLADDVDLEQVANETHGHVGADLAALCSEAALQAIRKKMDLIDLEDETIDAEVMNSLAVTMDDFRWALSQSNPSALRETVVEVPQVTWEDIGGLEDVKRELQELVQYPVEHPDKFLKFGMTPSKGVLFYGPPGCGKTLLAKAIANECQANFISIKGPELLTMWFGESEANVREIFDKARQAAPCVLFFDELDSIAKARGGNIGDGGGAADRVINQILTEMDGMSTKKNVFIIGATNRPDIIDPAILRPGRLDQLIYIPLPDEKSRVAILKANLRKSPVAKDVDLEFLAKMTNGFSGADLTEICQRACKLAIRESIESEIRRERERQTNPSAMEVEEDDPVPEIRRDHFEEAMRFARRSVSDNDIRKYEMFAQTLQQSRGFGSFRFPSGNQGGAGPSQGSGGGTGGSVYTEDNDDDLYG

For orientation: IC50 means the point on the concentration scale where inhibition reaches its midpoint.

With `CC(C)N1CCN(CCNC2CCN(c3cccc(-c4cc5ccccc5[nH]4)c3)CC2)CC1`, the IC50 came out at 100 nM.

For the origin of these results see patent US11247985B2, “Phenyl indole allosteric inhibitors of P97 ATPase” (University of Pittsburgh—Of the Commonwealth System of …, priority 2015, dated 2022).
